Reference: US8563545B2, “Compound useful for the treatment of degenerative and inflammatory diseases” (Galapagos NV, priority 2009, dated 2013)

By UniProt entry, the sequences of proteins in these tests, tags left out. Where a name states a change or a piece, a line headed by the entry shows the natural chain unless it says otherwise.
UniProt P29597: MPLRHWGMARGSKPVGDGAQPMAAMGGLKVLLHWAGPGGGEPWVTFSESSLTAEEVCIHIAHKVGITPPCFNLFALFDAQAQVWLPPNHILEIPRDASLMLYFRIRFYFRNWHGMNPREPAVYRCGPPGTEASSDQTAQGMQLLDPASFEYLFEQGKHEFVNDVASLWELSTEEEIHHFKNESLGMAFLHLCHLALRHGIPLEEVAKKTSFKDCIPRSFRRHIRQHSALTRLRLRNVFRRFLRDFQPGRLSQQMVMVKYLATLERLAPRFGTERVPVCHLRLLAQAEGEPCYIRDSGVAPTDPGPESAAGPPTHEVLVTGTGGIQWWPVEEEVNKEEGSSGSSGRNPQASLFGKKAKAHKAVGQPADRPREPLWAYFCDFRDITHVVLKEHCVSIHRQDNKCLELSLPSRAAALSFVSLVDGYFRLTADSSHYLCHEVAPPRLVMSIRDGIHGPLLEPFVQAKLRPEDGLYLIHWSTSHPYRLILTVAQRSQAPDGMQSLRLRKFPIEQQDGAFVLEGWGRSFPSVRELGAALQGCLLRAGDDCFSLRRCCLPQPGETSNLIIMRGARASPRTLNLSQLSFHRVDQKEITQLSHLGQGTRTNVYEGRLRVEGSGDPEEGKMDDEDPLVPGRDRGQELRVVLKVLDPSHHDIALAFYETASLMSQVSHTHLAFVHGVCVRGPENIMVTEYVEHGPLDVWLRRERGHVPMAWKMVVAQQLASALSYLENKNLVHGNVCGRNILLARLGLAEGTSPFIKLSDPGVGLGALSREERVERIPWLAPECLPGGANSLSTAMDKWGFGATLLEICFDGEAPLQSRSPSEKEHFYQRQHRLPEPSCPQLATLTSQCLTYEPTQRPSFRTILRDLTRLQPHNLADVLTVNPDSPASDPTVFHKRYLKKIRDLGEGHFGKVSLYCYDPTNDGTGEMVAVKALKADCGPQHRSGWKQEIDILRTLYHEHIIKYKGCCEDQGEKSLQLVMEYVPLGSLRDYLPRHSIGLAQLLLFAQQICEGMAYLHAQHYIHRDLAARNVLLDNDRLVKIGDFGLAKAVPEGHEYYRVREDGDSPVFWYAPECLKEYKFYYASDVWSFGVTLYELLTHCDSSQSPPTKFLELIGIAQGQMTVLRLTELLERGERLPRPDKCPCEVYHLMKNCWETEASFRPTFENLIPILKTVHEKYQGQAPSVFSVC

Experiments:
[1] = Pharmacokinetic study in rodents; type: in vivo; settings: male, plasma; Sprague-Dawley rat, IV 1 mg/kg; read-out: AUC (0-24 h)
Method: Sprague-Dawley rats (male, 5-6 weeks old) were obtained from Janvier (France). Rats were acclimatized for at least 7 days before treatment and were kept on a 12 hr light/dark cycle (0700-1900). Temperature was maintained at approximately 22° C., and food and water were provided ad libitum. Two days before administration of compounds 1 and 2, rats underwent surgery to place a catheter in the jugular vein under isoflurane anesthesia. After the surgery, rats were housed individually. Rats were deprived of food for at least 16 hours before oral dosing and 6 hours after. Water was provided ad libitum.
Compounds were formulated in PEG200/physiological saline (60/40) for the intravenous route and in 0.5% methylcellulose (compounds 1 and 2) and 10% hydroxylpropyl-β-cyclodextrine pH3 (compound 11) for the oral route. Test compounds were orally dosed as a single esophageal gavage at 5 mg/kg under a dosing volume of 5 ml/kg and intravenously dosed as a bolus via the caudal vein at 1 mg/kg under a dosing volume of 5 mL/kg. Each group consisted of 3 rats. […]
Plasma concentrations of each test compound were determined by an LC-MS/MS method in which the mass spectrometer was operated in positive electrospray mode.
Pharmacokinetic parameters were calculated using Winnonlin® (Pharsight®, United States).

[2] = molecular target: TYK2 (Homo sapiens (Human), UniProt P29597); assay: biochemical

O=C(Nc1nc2cccc(-c3ccc(CN4CCS(=O)(=O)CC4)cc3)n2n1)C1CC1 [Compound 1, Cyclopropanecarboxylic acid {5-[4-(1,1-dioxo-1-thiomorpholin-4-ylmethyl)-phenyl]-[1,2,4]triazolo [1,5-a]pyridin-2-yl}-amide]
AUC(0-t) [1]: 739 ng·h/mL
Kd [2]: 376 nM
